Results reported in US20070184020A1, “COMBINATION OF RADIO WAVES WITH PHARMACOLOGICALLY ACTIVE SUBSTANCES” (priority 2004, published 2007).

Tested on: metastatic colorectal carcinoma (mCRC)
Assay: Treatment of carcinomas of the large intestine with cetuximab, alone or combined with electrohyperthermia
Type: in vivo, human
Details: patients, cetuximab 400 mg/m^2 initial, 250 mg/m^2 weekly, plus local electrohyperthermia 1 h on three days per week; after 60 days; compared with cetuximab only; FIG. 1
Experimental: The patients are treated by approaching the electrode(s) as close as possible to the surface of the skin and in that the distance of said electrode(s) to the tumor is as small as possible. The treatment period is one hour on three days per week. It is substantial that neither during nor after the treatment, any side effects can be observed.
Treatment of carcinomas of the large intestine with cetuximab, as well as with cetuximab in combination with electrohyperthermia.
Each group was treated with the monoclonal antibody cetixumab (400 mg/m^2 initial dosage, 250 mg/M^2 weekly dosage) and 2 of the 4 patients were additionally treated with local electrohyperthermia on three days per week (Monday, Wednesday and Friday) for respectively one hour. The treatment was continued during a period of 10 weeks.

Question: cetuximab was tested. Which “CEA (tumor marker)” value did it give?
Answer: significantly lower
